Each structure is given as a SMILES string. Values joined by “and” are separate entries in the source; they are usually repeats but may differ in a detail not shown here. Identical values can stand only once. Only a part is listed here, and it is no random draw.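 Negative percent growth values reflect cell death: -40 means 40% of the cells present at the start died, and -100 means all died.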 Some salts or complexes appear as unconnected parts, following the source record. Active and inactive are the calls of the source. The calls were made as follows: active = growth percent below 10; inactive = the rest.

The test system of the assay is NCI-H322M lung. The assay can be described thus: NCI-60 one-dose screen, 48 h (100 = growth as untreated, 0 = no growth, -100 = all killed). The settings on record: 10 µM.
Regarding `CCCOP(=S)(Cl)OCCC`, the growth is inactive: 100%.

With `CN(C)CCS`, the growth is inactive: 128% and inactive: 91.5%.

For `O=C(O)C1(O)c2ccccc2-c2ccccc21`, the growth was inactive: 97.1% and inactive: 116%.

Turning to `Nc1cccc(Cl)c1.O=[N+]([O-])c1cc([N+](=O)[O-])c(O)c([N+](=O)[O-])c1`, the growth is inactive: 100%.

As to `OCCSCCO`, the growth was inactive: 105%.

`Nc1cc([As](Cl)Cl)cc(N)c1O`: the growth is inactive: 122%.

In the case of `O=[N+]([O-])N(CCN(CC(Br)([N+](=O)[O-])[N+](=O)[O-])[N+](=O)[O-])CC(Br)([N+](=O)[O-])[N+](=O)[O-]`, the growth is inactive: 95.9%.

For `O=C1N([N+](=O)[O-])CCN1[N+](=O)[O-]`, the growth was inactive: 107%.

For the compound `CC[N+]([O-])(CC)Cc1ccccc1.O=[N+]([O-])c1cc([N+](=O)[O-])c(S(=O)(=O)O)c([N+](=O)[O-])c1`, the growth is inactive: 109%.

As to `CP(=O)(OCCCl)N(CCCl)CCCl` (stereo not given), the growth is inactive: 113%.

With `CN(CCO)CCCl.O=[N+]([O-])c1cc([N+](=O)[O-])c(O)c([N+](=O)[O-])c1`, the growth was inactive: 106%.

`CCN(CC)CCOC(=O)C(O)(c1ccccc1)c1cc(C)c(C)c(C)c1C` (stereo not given): the growth was inactive: 92.9%.

In the case of `CCN(CC)CCOC(=O)C(O)(c1ccccc1)c1cc(C)cc(C)c1C` (stereo not given), the growth is inactive: 117%.

With `CCN(C)CC.O=[N+]([O-])c1cc([N+](=O)[O-])c(O)c([N+](=O)[O-])c1`, the growth was inactive: 104%.

`O=C(Cl)c1c([N+](=O)[O-])cc([N+](=O)[O-])cc1[N+](=O)[O-]`: the growth is inactive: 88.7%.

With `COc1ccc(C(O)(C(=O)OCCN2CCCCC2)c2ccc(OC)cc2)cc1`, the growth was inactive: 119%.

For the compound `Cc1c([N+](=O)[O-])c(C)c([N+](=O)[O-])c(C)c1[N+](=O)[O-]`, the growth is inactive: 111%.

For `O=C(OCCN1CCCCCCCC1)C(O)(c1ccccc1)c1ccccc1`, the growth is inactive: 104%.

With `CN/C(N)=N/[N+](=O)[O-]`, the growth is inactive: 116%.

Regarding `CCOC(=O)Nc1c([N+](=O)[O-])cc([N+](=O)[O-])cc1[N+](=O)[O-]`, the growth is inactive: 112%.

With `O=[N+]([O-])c1cc([N+](=O)[O-])c(Nc2nnnn2CCO)c([N+](=O)[O-])c1`, the growth is inactive: 119%.

As for `Cc1c([N+](=O)[O-])cc([N+](=O)[O-])c(Br)c1[N+](=O)[O-]`, the growth was inactive: 94.8%.

As to `CN1CCN(CCOC(=O)C(O)(c2ccccc2)c2ccccc2)CC1`, the growth is inactive: 100%.

For the compound `O=[N+]([O-])c1cc([N+](=O)[O-])c(O)c([N+](=O)[O-])c1.c1ccc([I+]c2ccccc2)cc1`, the growth was inactive: 68.4%.

With `Nc1cc([N+](=O)[O-])cc([N+](=O)[O-])c1O`, the growth is inactive: 127% and inactive: 111%.

For `CC(C)N1CCN(CCOC(=O)C(O)(c2ccccc2)c2ccccc2)CC1`, the growth is inactive: 106%.

Consider `CC(C)N(CCCl)C(C)C`, for which the growth is inactive: 120%.

Turning to `O=[N+]([O-])OCCOc1ccc([N+](=O)[O-])cc1[N+](=O)[O-]`, the growth is inactive: 111%.

`O=[N+]([O-])N(CCOC(N(F)F)(N(F)F)N(F)F)CC([N+](=O)[O-])([N+](=O)[O-])[N+](=O)[O-]`: the growth is inactive: 91.1%.

Consider `NN/C(N)=N/[N+](=O)[O-]`, for which the growth is inactive: 91.9%.

Source of the values: PubChem BioAssay (NCI).
